Measured values published in patent US20260000735A1, “ENHANCED DIFFERENTIATION OF BETA CELLS” (Vertex Pharmaceuticals Incorporated, priority 2019, published 2026).

Test system: SC-β cells / SC-islets
Assay: Glucose stimulated insulin secretion (GSIS), human C-peptide per 1000 cells
Assay type: cell-based

Substance: low HSA: human serum albumin; low = 0.05%
- GSIS function of SC-β cells (addition of 1% HSA): can increase GSIS function
- glucose stimulated insulin secretion (GSIS) (low HSA (0.05%) in modified S5 media, 2.8 mM and 20 mM glucose, S6d12): associated with lower glucose stimulated insulin secretion (GSIS)
